Reference: patent publication US4515891A, “Process for the production of disaccharide-tripeptide and disaccharide-tetrapeptide” (priority 1982, dated 1985)

Assay: Solubility (physicochemical properties)

For “β-N-acetylglucosaminyl-(1→4)-N,6-O-diacetylmuramyl-L-alanyl-D- isoglutaminyl-(L)-meso-2,6-diaminopimelic acid-(D)-amide-(L)-D-alanine [GMP4 -B]”, the Solubility (in diethyl ether) was “insoluble” and the Solubility (in water, 50% C1-3 alcohol) was “Soluble”.
